Measurements reported in US8431529B2, “Bi-dentate compounds as kinase inhibitors” (Sanford-Burnham Medical Research Institute, priority 2007, dated 2013).

Amino acid sequences for entries named in this document (tags omitted).
UniProt P45983, whole entry: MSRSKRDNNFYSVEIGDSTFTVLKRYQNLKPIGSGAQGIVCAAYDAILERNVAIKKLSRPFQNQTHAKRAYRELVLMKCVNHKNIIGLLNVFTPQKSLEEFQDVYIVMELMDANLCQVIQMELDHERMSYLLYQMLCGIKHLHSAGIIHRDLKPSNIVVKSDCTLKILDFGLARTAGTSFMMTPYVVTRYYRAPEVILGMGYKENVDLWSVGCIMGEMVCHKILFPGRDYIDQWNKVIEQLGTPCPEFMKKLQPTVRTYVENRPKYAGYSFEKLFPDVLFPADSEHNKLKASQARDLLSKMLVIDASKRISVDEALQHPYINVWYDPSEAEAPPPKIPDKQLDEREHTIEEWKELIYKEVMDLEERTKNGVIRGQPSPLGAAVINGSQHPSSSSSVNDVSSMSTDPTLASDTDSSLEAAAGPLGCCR

Target: JNK1 (Homo sapiens, UniProt P45983)
Assay: LanthaScreen TR-FRET in vitro kinase activity assay, JNK1 phosphorylation of ATF2
Format: biochemical
Conditions: read-out: IC50 (μM), Kinase Assay; Table 2

| Structure (SMILES) | IC50 |
| --- | --- |
| O=C(NCCCCCNC(=O)C12CC3CC(CC(C3)C1)C2)c1ccc(-c2n[nH]c3ccccc23)cc1 | 5 µM |
| O=C(NCCCNC(=O)c1ccc2ncccc2c1)c1ccc(-c2n[nH]c3ccccc23)cc1 | 5.7 µM |
| O=C(NCCCCCNC(=O)c1ccc2ccccc2c1)c1ccc(-c2n[nH]c3ccccc23)cc1 | 4.8 µM |
| CC(C)(C)c1cc(C(C)(C)C)c2oc(C(=O)NCCCCCNC(=O)c3ccc(-c4n[nH]c5ccccc45)cc3)cc(=O)c2c1 | 1 µM |
| CC1=C(/C=C/C(C)=C/C=C/C(C)=C/C(=O)NCCCCCNC(=O)c2ccc(-c3n[nH]c4ccccc34)cc2)C(C)(C)CCC1 | 0.75 µM |
| CC12CC3(C)CC(C)(C1)CC(C(=O)NCCCCCNC(=O)c1ccc(-c4n[nH]c5ccccc45)cc1)(C2)C3 | 4.7 µM |
| NCCCCCNC(=O)c1ccc(-c2n[nH]c3ccccc23)cc1 | 6.3 µM |
| O=C(CCC12CC3CC(CC(C3)C1)C2)NCCCCCNC(=O)c1ccc(-c2n[nH]c3ccccc23)cc1 | 2.2 µM |
